{"source": "paper PMC9945182", "about": "(Chemical Research in Toxicology, 2023)", "key": {"FMO3": {"target": "T1, FMO3 (Homo sapiens, UniProt P31513)", "T1 sequence (P31513 1-532)": "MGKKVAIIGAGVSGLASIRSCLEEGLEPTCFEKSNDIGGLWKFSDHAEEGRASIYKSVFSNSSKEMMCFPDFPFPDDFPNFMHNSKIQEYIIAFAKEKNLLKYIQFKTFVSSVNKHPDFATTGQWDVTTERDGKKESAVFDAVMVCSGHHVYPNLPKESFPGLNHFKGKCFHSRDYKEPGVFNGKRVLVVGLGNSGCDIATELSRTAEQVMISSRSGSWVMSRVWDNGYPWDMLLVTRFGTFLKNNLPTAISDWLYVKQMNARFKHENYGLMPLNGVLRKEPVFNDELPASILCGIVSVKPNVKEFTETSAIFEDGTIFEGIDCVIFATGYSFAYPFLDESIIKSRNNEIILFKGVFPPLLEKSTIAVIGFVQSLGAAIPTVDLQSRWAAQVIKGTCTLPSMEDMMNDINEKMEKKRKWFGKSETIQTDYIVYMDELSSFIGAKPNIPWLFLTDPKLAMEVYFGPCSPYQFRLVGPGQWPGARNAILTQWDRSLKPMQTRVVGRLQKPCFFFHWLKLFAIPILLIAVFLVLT", "type": "biochemical", "conditions": "up to 50 μM, potential inhibitor control"}, "FMO1": {"target": "T2, FMO1 (Homo sapiens, UniProt Q01740)", "T2 sequence (Q01740 1-532)": "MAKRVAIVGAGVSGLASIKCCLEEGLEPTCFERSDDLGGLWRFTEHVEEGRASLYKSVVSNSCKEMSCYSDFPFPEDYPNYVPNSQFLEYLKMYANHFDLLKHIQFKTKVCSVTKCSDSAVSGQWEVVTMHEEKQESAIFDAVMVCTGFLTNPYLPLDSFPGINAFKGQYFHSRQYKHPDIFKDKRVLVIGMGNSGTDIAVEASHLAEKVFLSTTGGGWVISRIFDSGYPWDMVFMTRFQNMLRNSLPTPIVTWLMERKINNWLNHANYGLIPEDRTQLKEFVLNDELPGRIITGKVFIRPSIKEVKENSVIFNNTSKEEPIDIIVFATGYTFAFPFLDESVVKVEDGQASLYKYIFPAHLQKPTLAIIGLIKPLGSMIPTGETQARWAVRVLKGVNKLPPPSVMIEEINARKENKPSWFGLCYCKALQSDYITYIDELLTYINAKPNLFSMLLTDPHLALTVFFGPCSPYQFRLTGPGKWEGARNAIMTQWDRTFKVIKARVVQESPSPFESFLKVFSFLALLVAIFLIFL", "type": "biochemical", "conditions": "up to 50 μM, potential inhibitor control"}}, "data": [{"compound": "CN(C)CCCOc1nn(Cc2ccccc2)c2ccccc12", "note": "[benzydamine]", "values": [{"measurement": "inhibition of FMO activities", "setting": "FMO3", "value": "no significant inhibition"}, {"measurement": "inhibition of FMO activities", "setting": "FMO1", "value": "no significant inhibition"}]}]}
